Test results as given in US20220323583A1, “Pharmaceutical Formulations of Bi-Specific Diabodies and Use of the Same” (MacroGenics, Inc., priority 2019, published 2022).

Tested on: Pseudomonas aeruginosa (ATCC 9027)
Test: Microbial challenge testing
Format: cell-based
Protocol: The single ambulatory pump dose preparation scheme and administration configuration was simulated. […] Ten vials of reconstituted Pseudomonas aeruginosa (ATCC 9027) were pooled before being aliquoted to create the final formulations. To samples were collected from the mixing bottles upon completion of the formulation preparation steps. Corresponding pump cassettes were filled with the remaining stabilizer solutions and incubated at 32±2° C. The 24-hour and 48-hour time points were thoroughly mixed within the cassettes to ensure a uniform P. aeruginosa suspension before sample collection. After collection, samples were immediately subjected to bioburden testing. The microbial challenge testing results can be seen below in Table 16.
For the study, the single ambulatory pump dose preparation scheme was simulated. P. aeruginosa and C. albicans microbes were reconstituted and pooled before being added to the final dosing solutions. Each solution was added to its corresponding cassette and To samples were collected immediately upon cassette filling. This procedure accounted for any changes in microbial growth patterns that may be associated with syringe stress exposure. After To collection, corresponding cassettes were incubated at 32±2° C. The 24-, 72- and 168-hour time points were thoroughly mixed to ensure a uniform microbe suspension before sample collection. […]

Q: For “rHA: recombinant human albumin, blocking agent”, which “effect of rHA in the stabilizer solution on microbial growth” value is on record?
A: Its value is “does not affect microbial growth”.
